{
  "sequences": {"note": "Chains of the proteins cited; added tags and fusions are not shown. Residues count along the entry.", "UniProt P01375, 77-233 limits assumed": "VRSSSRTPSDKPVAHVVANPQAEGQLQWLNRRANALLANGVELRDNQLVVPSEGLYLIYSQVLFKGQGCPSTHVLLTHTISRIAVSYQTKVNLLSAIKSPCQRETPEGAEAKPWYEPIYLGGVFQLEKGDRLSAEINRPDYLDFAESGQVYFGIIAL"},
  "source": "patent US20220144934A1",
  "about": "(Janssen / Centocor, published 2022)",
  "molecular_target": "T1, recombinant human TNFα (human, UniProt P01375 77-233, 125I-labeled in the receptor-blocking assay ; 125I-labelled (positions not stated) only in the receptor-blocking assay; soluble homotrimer of this 17 kD subunit)",
  "T1 construct": "also called huTNFα; soluble human tumor necrosis factor alpha",
  "assay": "competition radioligand assay: cA2 spiked into anti-IL-18 control supernatant, preincubated with 5 ng/ml 125I-TNFα, then 125I-TNFα bound to plate-coated p55-sf2 (TNF receptor/IgG fusion) counted as cpm",
  "data": [
    {"binder": "chimeric antibody cA2 (antibody, V domains shown) VH: EVKLEESGGGLVQPGGSMKLSCVASGFIFSNHWMNWVRQSPEKGLEWVAEIRSKSINSATHYAESVKGRFTISRDDSKSAVYLQMTDLRTEDTGVYYCSRNYYGSTYDYWGQGTTLTVS VL: DILLTQSPAILSVSPGERVSFSCRASQFVGSSIHWYQQRTNGSPRLLIKYASESMSGIPSRFSGSGSGTDFTLSINTVESEDIADYYCQQSHSWPFTFGSGTNLEVK", "values": [
      {"measurement": "IC50 (read off the curve)", "result": "~10", "unit": "ng/mL"}
    ]}
  ]
}
